Nrf2 block: inhibitors of Nrf2 signaling; A549 ARE-Fluc reporter, luciferase luminescence, 18-24 h; Potency, µM (doses to about 46 µM), most hits filed as inhibitors; actives 2.1% (n = 360,000); AID 504444; further: nearly all actives have a fitted effect of over 60% in size
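Nrf2 function is reported as luminescence of an ARE-controlled luciferase in A549 cells. Compounds were tested at several concentrations, and a CellTiter-Fluor read on the same wells flagged cytotoxicity.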
A549 viability: A549 cytotoxicity, counter-screen for Nrf2 inhibitors; Potency, µM (highest dose often 46 µM), hits mostly inhibitors; A549 ARE-Fluc cells, CellTiter-Fluor viability, 18-24 h; AID 504648; actives 0.16% (n = 390,000)
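Cytotoxicity counterscreen: CellTiter-Fluor fluorescence was measured in A549 ARE_Fluc cells after 18-24 h of compound exposure in a concentration series. The subsequent BugLite luminescent read reports ARE-luciferase activity.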
IL-2 act: IL-2 activation | IL-2 activation reporter assay, cell-based qHTS; stimulated with anti-CD3/CD4/CD28 beads; in transgenic mouse T cells | activation, % (series mostly up to about 46 µM) | actives 0.065% (n = 360,000) | AID 652025; in the data active means activation above about 50%; inconclusive means mostly about 30% to 49%
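Unstimulated transgenic mouse T cells, 750 per well, received compound and, after 60 minutes, anti-CD3/anti-CD4 bead plus anti-CD28 stimulation. EGFP and DsRed were quantified after 18 hours.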
miR-21 reporter: miR-21 reporter, rising signal. HeLa miR-21 FLuc reporter, luciferase, 48 h. Potency, µM (highest dose often 38.3 µM). 340,000 tested, under 10 active. AID 2288; active = well fitted rising curve with a large enough effect; inconclusive = small, poorly fitted or top-dose-only effect; inactive = no such curve, though single readings can be large or run the other way;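 further: miR-21 action dims this reporter so a rising signal means less miR-21 action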
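HeLa cells stably expressing CMV-driven firefly luciferase with a downstream miR-21 binding sequence, endogenously expressing miR-21, were treated with titrations (up to about 40uM final) for 48 hours at 37 degree Celsius. Luciferase luminescence was read after lysis.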
Nrf2 activator: activates Nrf2 signaling. actives 0.31% (n = 410,000). AREc32 ARE-luciferase reporter (MCF7-derived line), luminescence, 24 h. AID 624171. Potency, µM (top dose mostly 46.1 µM), actives largely listed as activators; further: nearly all actives have a fitted effect of over 65% in size
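Reporter line AREc32 (ARE-Fluc), seeded overnight in OPTI-MEM with 5% FBS; compound pin-transferred, 24 hr at 37 deg C, 5% CO2; luminescent read-out.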
ClpP mod: qHTS Assay for Activators of ClpP | AID 651965, 2013 | actives 1.9% (n = 340,000) | purified B. subtilis ClpP, FRET peptide cleavage, 20 min | Potency, µM (top dose mostly 57.5 µM) | ATP-dependent Clp protease proteolytic subunit (Bacillus subtilis (strain 168)), P80244; active means well fitted falling curve with a large enough effect; inconclusive means small, poorly fitted or top-dose-only effect; inactive means no such curve, though single readings can be large or run the other way; further: the source files actives as falling curves though it sought activators and does not explain the sign; nearly all actives have a fitted effect of over 65% in size
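FRET quenching reversal measured ClpP activation: 10 microg/mL B. subtilis ClpP at pH 8 with the FRET-FV decapeptide, read at 430 nm after 320 nm excitation. The 20-min minus 0-min signal was scaled between DMSO/no-enzyme wells and ADEP (5.8 microM final).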
Large screens that a line does not name were inactive. An excerpt weighted towards active compounds, which were near 3.7% of everything screened. Unless noted, the call rests on the fitted dose curve; in most records, active means well fitted curve in the direction sought with a large enough effect; inconclusive means small, poorly fitted or top-dose-only effect, or another doubt; inactive means no such curve, though single readings can be large; an effect the other way counts as inactive or inconclusive.

O=C1Cc2cc(S(=O)(=O)N3CCN(c4cccc(C(F)(F)F)c4)CC3)ccc2N1	none (no result: IL-2 act, miR-21 reporter, Nrf2 activator, ClpP mod)
Cc1nn(C(C)C(=O)NCc2ccccc2F)c(=O)c2nn(-c3ccccc3)c(C)c12 (stereo not drawn)	none
CCC(C(=O)NCCc1ccc(C)cc1)n1nc(C)c2c(C)n(-c3ccccc3)nc2c1=O (stereo not drawn)	Nrf2 block 16.4µM
Cc1ccc(-n2nc3c(=O)n(C(C)C(=O)NCCC4=CCCCC4)nc(C)c3c2C)cc1 (stereo not drawn)	Nrf2 block 20.6µM
Cc1ccc(-n2nc3c(=O)n(C(C)C(=O)NCc4ccc(Cl)cc4)nc(C)c3c2C)cc1 (stereo not drawn)	Nrf2 block 10.3µM
Cc1ccc(-n2nc3c(=O)n(C(C)C(=O)NCc4ccccc4C)nc(C)c3c2C)cc1 (stereo not drawn)	Nrf2 block 5.17µM (no result: IL-2 act)
O=C(CSc1nc(-c2ccccc2)no1)N1CCN(c2ccc(F)cc2)CC1	none (no result: IL-2 act)
CSc1ccc(CCNC(=O)Cn2ncn3c(cc4ccccc43)c2=O)cc1	ClpP mod 20µM (no result: IL-2 act)
Cc1ccc(S(=O)(=O)c2c(C)cc(C)nc2Oc2cccc(C(F)(F)F)c2)cc1	Nrf2 block inconclusive
Cc1cc(-c2ccccc2)nc(Oc2cccc(C(F)(F)F)c2)c1S(C)(=O)=O	ClpP mod 35.5µM (no result: Nrf2 block)
Cc1c(Cl)cccc1-n1ncc(C(=O)NCc2cccs2)c1C1CCN(C(=O)OC(C)(C)C)CC1	Nrf2 block inconclusive (no result: IL-2 act)
O=C1c2ccccc2C(=O)c2c(NCCCN(CCO)CCO)cccc21	Nrf2 block inconclusive, A549 viability inconclusive (no result: ClpP mod)
O=C1c2c(O)ccc(O)c2C(=O)c2c(NCCNCCO)ccc(NCCNCCO)c21	Nrf2 block inconclusive, A549 viability 13µM (no result: miR-21 reporter)
COCCCNc1nc(NCc2ccc(C)cc2)c2cnn(C)c2n1	none (no result: Nrf2 block, IL-2 act)
Cc1ccc(CN(Cc2ccco2)C(=S)NCC(=O)NCc2cccnc2)cc1	Nrf2 block 7.31µM (no result: ClpP mod)
Cc1ccc(CNC(=O)CNC(=S)N(Cc2ccccc2)Cc2cccnc2)cc1	none (no result: ClpP mod)
O=C(CNC(=S)N(Cc1ccccc1)Cc1cccnc1)NC1CC1	ClpP mod 25.1µM
O=C(O)C#CC(=O)O	none (no result: Nrf2 block, A549 viability, IL-2 act, miR-21 reporter, Nrf2 activator)
O=S(=O)(Nc1cccc2ccccc12)c1cccc2ccccc12	Nrf2 block 18.4µM (no result: IL-2 act, miR-21 reporter, Nrf2 activator, ClpP mod)
O=S(=O)(Nc1cccc2ccccc12)c1ccccc1	none (no result: ClpP mod)
Cc1nnc(NC(=O)CSCc2ccccc2)s1	none
Cc1ccc(NC(=O)CSCC(=O)Nc2nnc(C)s2)cc1	ClpP mod 28.2µM (no result: miR-21 reporter)
Cc1nn(CCC(=O)Nc2ccccc2Br)c(=O)c2nn(-c3ccccc3)c(C)c12	none (no result: Nrf2 block, IL-2 act)
COc1ccc(S(=O)(=O)NNC(=O)c2cc3c4ccccc4n(C)c3s2)cc1	ClpP mod 35.5µM
CC(=O)NNC(=O)c1cc2c3ccccc3n(C)c2s1	none
Cc1ccc2oc(-c3cccc(NC(=O)COc4ccc(Cl)cc4C)c3C)nc2c1	none (no result: Nrf2 block, A549 viability, IL-2 act, miR-21 reporter, Nrf2 activator)
CCCC(NC(=S)NCC1CCCO1)C12CC3CC(CC(C3)C1)C2 (stereo not drawn)	Nrf2 block 14.6µM
Cc1cccn2c(=O)cc(COc3ccc(NC(=O)c4cccc(F)c4)cc3)nc12	none (no result: Nrf2 block, IL-2 act)
Cc1ccccc1Cn1nc(C)c(NC(=O)c2cc3nc(-c4ccco4)cc(C(F)(F)F)n3n2)c1C	Nrf2 block 20.6µM
COc1ccc(-c2cc(C(F)(F)F)n3nc(C(=O)NCC45CC6CC(CC(C6)C4)C5)cc3n2)cc1OC	none (no result: IL-2 act)
COc1ccc(-c2cc(C(F)(F)F)n3nc(C(=O)NCC45CC6CC(CC(C6)C4)C5)cc3n2)cc1	Nrf2 block 14.6µM (no result: IL-2 act)
COc1ccc(-c2cc(C(F)(F)F)n3nc(C(=O)NCc4ccco4)cc3n2)cc1	ClpP mod 15.8µM
COc1cc2c(cc1OC)n(CC(=O)c1ccc(C)cc1C)c(=O)n1nc(CCn3nc(C)cc3C)nc21	none (no result: Nrf2 block, IL-2 act)
N#CC1=C(N)N2C(=C(C#N)C13CCN(Cc1ccccc1)CC3)Nc1ccccc12	ClpP mod 31.6µM (no result: Nrf2 block)
CCc1nnc2sc(-c3ccc(NC(=O)c4ccc5c(c4)OCCO5)cc3)nn12	Nrf2 block 2.59µM, ClpP mod 28.2µM
CCc1nnc2sc(-c3ccc(NC(=O)c4ccco4)cc3)nn12	none
CC(=O)N1CCC(N(Cc2ccc(C)o2)C(=O)Nc2ccc(C)cc2)CC1	Nrf2 block inconclusive (no result: IL-2 act)
COC(=O)c1ccccc1NC(=O)c1cccc(COc2ccccc2Cl)c1	Nrf2 block inconclusive, ClpP mod 25.1µM
Cc1ccc2nc(-c3ccc(NC(=O)CCN4C(=O)c5ccccc5C4=O)cc3)sc2c1	Nrf2 block inconclusive
Cc1ccc2nc(-c3ccc(NC(=O)C(C)N4C(=O)c5ccccc5C4=O)cc3)sc2c1 (stereo not drawn)	Nrf2 block inconclusive, ClpP mod 25.1µM
CCOc1ccc(NC(=O)c2oc(=O)c3ccccc3c2-c2ccc(C)cc2)cc1	none (no result: Nrf2 block, IL-2 act)
CCOC(=O)C1CCCN(C(=O)c2ccc3c(c2)N(C)C(=O)/C(=C/c2ccccc2Cl)S3)C1 (stereo not drawn)	Nrf2 block 23.1µM
CN1C(=O)/C(=C/c2cccc(Cl)c2)Sc2ccc(C(=O)N3CCOCC3)cc21	Nrf2 block 14.6µM
CC(=O)Nc1ccc(NC(=O)Cn2nc([N+](=O)[O-])c(Br)c2C)cc1	none (no result: ClpP mod)
Cc1c(Br)c([N+](=O)[O-])nn1CC(=O)Nc1ccc(Cc2ccncc2)cc1	Nrf2 block 18.4µM, A549 viability inconclusive
FC(F)(F)c1ccc(C2[C@H]3CN(Cc4ccc(-c5ccccc5)cc4)[C@H](c4ccccc4)C34CC2(c2cccnc2)C4)cc1 (stereo partly drawn)	none
FC(F)(F)c1ccc(C2[C@H]3CN(Cc4cccnc4)[C@H](c4ccccc4)C34CC2(c2cccnc2)C4)cc1 (stereo partly drawn)	Nrf2 block 25.9µM, A549 viability inconclusive, miR-21 reporter inconclusive
CC1CC(C)(C)CC2(C1)NC(=O)N(CC(=O)N1CCN(Cc3ccc(C#N)cc3)CC1)C2=O (stereo not drawn)	Nrf2 block 1.84µM (no result: miR-21 reporter)
Cc1cccc(NC(=O)CN2CCN(C(=O)CN3C(=O)NC4(CC(C)CC(C)(C)C4)C3=O)CC2)c1C (stereo not drawn)	Nrf2 block 16.4µM (no result: miR-21 reporter)
CCOC(=O)CSc1nc2sc3c(c2c(=O)n1C1CCCCC1)CCN(C)C3	ClpP mod 28.2µM
CCOC(=O)CSc1nc2sc3c(c2c(=O)n1-c1ccc(OCC)cc1)CCN(C)C3	none
